Measured values as given in patent US20050203135A1, “Antagonists for treatment of CD/11CD18 adhesion receptor mediated disorders” (Genentech, Inc., priority 1998, published 2005).

Chains of the proteins cited; added tags and fusions are not shown. Lines headed by an entry give the natural chain unless they say otherwise; changes in a name come on top.
UniProt P05107: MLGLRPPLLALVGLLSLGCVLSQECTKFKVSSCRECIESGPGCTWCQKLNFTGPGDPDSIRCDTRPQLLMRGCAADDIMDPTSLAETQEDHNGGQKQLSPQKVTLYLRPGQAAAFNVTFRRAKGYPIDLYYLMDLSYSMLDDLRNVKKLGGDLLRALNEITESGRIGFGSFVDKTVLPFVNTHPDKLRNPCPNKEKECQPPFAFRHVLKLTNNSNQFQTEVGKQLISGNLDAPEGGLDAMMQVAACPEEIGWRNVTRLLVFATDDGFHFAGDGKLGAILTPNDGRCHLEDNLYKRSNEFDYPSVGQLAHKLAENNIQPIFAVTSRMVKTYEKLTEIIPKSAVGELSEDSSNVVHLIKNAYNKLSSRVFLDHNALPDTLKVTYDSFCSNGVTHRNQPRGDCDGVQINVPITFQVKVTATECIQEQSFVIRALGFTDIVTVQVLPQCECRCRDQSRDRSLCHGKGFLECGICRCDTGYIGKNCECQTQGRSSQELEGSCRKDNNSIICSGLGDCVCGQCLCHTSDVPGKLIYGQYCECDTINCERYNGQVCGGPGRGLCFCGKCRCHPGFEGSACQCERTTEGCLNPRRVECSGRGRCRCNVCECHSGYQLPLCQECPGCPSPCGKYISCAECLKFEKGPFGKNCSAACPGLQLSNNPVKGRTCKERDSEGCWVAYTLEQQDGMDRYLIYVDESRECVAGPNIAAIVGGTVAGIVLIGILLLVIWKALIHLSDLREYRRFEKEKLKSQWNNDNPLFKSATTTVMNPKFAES
UniProt P20701: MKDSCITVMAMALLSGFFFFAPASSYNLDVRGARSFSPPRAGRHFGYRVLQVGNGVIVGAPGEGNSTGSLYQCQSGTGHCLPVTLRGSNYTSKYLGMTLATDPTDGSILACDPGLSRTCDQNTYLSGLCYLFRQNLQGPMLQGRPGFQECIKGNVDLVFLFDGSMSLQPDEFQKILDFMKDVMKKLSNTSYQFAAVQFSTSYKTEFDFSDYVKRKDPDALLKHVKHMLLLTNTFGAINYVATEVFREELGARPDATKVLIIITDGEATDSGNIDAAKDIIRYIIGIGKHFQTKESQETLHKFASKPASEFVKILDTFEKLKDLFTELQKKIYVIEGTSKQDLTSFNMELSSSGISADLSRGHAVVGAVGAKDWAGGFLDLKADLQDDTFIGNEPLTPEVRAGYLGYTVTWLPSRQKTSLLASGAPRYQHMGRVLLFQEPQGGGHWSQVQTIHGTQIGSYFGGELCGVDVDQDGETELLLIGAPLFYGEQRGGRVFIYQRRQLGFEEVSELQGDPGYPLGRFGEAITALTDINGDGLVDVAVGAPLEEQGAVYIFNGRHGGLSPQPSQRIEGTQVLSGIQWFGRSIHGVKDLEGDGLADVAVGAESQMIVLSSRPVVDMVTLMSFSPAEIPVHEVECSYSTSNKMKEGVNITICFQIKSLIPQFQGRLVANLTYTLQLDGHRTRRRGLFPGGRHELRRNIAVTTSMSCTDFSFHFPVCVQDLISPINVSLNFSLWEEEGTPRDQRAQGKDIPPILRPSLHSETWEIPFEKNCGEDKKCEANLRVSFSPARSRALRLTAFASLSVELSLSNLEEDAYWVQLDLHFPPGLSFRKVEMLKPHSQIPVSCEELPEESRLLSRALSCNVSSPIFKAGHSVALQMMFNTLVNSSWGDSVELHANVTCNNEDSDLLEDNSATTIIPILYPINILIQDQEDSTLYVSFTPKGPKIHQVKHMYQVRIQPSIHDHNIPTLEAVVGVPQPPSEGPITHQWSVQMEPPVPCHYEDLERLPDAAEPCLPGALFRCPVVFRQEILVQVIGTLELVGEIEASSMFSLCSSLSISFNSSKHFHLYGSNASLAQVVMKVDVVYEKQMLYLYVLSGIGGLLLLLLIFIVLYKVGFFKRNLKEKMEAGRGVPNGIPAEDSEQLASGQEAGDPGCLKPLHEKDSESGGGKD

Target: CD11a/CD18-ICAM-1 interaction (recombinant human LFA-1 / human 5 domain ICAM-Ig) (Homo sapiens, UniProt P05107+P20701)
Assay: PLM2 antibody capture LFA-1:ICAM-1 assay (PLM2)
Settings: read-out: PLM2; PLM2 antibody capture format of LFA/ICAM assay

3-bromobenzyl bromide
IC50: 71 nM
